Experiments:
[1] = biological target: T1, IL-4RFc (extracellular portion of the human receptor for IL-4 fused to Fc of human IgG1) (Homo sapiens, UniProt P24394); assay: Cell-free IL-4 binding assay, competition of ligands with IL-4-biotin; settings: 300 ng/ml IL-4-biotin, various concentrations of competitor; FIG. 3
T1 construct: It is composed of the extracellular portion of the human receptor for IL-4
Procedure: (§1) ELISA plates (Nunc, type B) were coated overnight at 4° C. with 100 μl of an affinity-purified rabbit serum against the CH2 domain of human IgG (Dakopatts). The concentration was 10 μg/ml in PBS (137 mM NaCl, 2.7 mM KCl, 6.1 mM Na2 HPO4, 3.9 mM KH2 PO4, 0.5 mM MgCl2, 0.1 mM CaCl2, pH 7.0). The assay plate was washed five times with PBS containing 0.05% Tween 20 and then incubated with 275 μl of PBS containing 5% skim milk powder at room temperature for 60 min and then washed as above. Then a "checkerboard titration" was initially carried out in order to determine a suitable combination of receptor and ligand concentrations for the design of the assay. […] After washing as above, incubation with 100 μl of streptavidin-peroxidase (Amersham; 1:250 in DMEM/FCS) was carried out at room temperature for 30 min and then washed as above. The bound peroxidase was detected by the color produced in 100 μl of tetramethylbenzidine substrate solution (Behringwerke). After incubation at room temperature for 30 min, the extinction at 450 nm was measured.

[2] = biological target: T2, TNFRFc (extra-cellular portion of the 80 kD form of the human TNF receptor fused to Fc of human IgG1) (Homo sapiens, UniProt P20333); assay: Cell-free TNF binding assay, competition of ligands with TNF-alpha-biotin; settings: 200 ng/ml TNFRFc for coating, 20 ng/ml TNF-alpha-biotin, concentrations used; FIG. 8
T2 construct: made in house
Procedure: as §1, with “The” for “ELISA plates (Nunc, type B) were coated overnight at 4° C. with 100 μl of an affinity-purified rabbit serum against the CH2 domain of human IgG (Dakopatts). The concentration was 10 μg/ml in PBS (137 mM NaCl, 2.7 mM KCl, 6.1 mM Na2 HPO4, 3.9 mM KH2 PO4, 0.5 mM MgCl2, 0.1 mM CaCl2, pH 7.0). The”

[3] = biological target: T3, GM-CSFRFc (extracellular domain of the human GM-CSF receptor fused to Fc of human IgG1) (Homo sapiens, UniProt P15509); assay: Cell-free GM-CSF binding assay, competition of ligands with GM-CSF-biotin; settings: 1000 ng/ml GM-CSFRFc for coating, 150 ng/ml GM-CSF-biotin, concentrations used; FIG. 14
T3 construct: made in house; host or cells: COS cells (transient; supernatants used)
Procedure: as §1
Transient expression of pGM-CSFRFc in COS cells was carried out. To do this, COS cells were transfected with pGM-CSFRFc with the aid of DEAE-dextran (EP-A 0325 262).

competition with IL-4-biotin for binding to IL-4RFc [1]: no binding activity
effect on binding of TNF-alpha-biotin to TNFRFc [2]: no effect
inhibition of binding of GM-CSF-biotin to GM-CSFRFc [3]: do not inhibit
B1: IL-3: interleukin ligand used for competition (specificity control) (protein, UniProt P08700 20-152, looked up)
Interleukin-3: APMTQTTPLKTSWVNCSNMIDEIITHLKQPPLPLLDFNNLNGEDQDILMENNLRRPNLEAFNRAVKSLQNASAIESILKNLLPCLPLATAAPTRHPIHIKDGDWNEFRRKLTFYLKTLENAQAQQTTLSLAIF

Reference: US5639597A, “Cell-free receptor binding assays, the production and use thereof” (Behringwerke Aktiengesellschaft, priority 1990, dated 1997)
